# Literature values, collected in US20170216421A1, “MANUFACTURING OF MULTI-DOSE INJECTION READY DENDRITIC CELL VACCINES, COMBINATION THERAPIES FOR BLOCKING HER2 AND HER3, AND ESTROGEN RECEPTOR POSITIVE HER2 BREAST RECEPTOR POSITIVE HER2 BREAST CANCER THERAPY” (THE TRUSTEES OF THE UNIVERSITY OF PENNSYLVANIA, priority 2015, published 2017).
# Test system: HER2/ErbB2 positive breast cancer cells
# Conditions: estimated; Burris et al., 2000; cited from earlier work
substance,measurement,value
Herceptin: targeted therapy for HER2/ErbB2 positive breast cancer cells,efficacy,less than 30%
